Target: T1, μ-opioid receptors (Rattus norvegicus, UniProt P33535)
T1 construct: A crude membrane fraction was prepared from Wistar rat brains and spinal cords; from tissue; host or cells: Wistar rat brain (without cerebellum), crude membrane fraction
Assay: Receptor binding assay, [3H]DAMGO displacement in rat brain membranes
Details: in words

The chains behind the UniProt entries cited, without tags or fusion partners.
UniProt P33535, whole entry: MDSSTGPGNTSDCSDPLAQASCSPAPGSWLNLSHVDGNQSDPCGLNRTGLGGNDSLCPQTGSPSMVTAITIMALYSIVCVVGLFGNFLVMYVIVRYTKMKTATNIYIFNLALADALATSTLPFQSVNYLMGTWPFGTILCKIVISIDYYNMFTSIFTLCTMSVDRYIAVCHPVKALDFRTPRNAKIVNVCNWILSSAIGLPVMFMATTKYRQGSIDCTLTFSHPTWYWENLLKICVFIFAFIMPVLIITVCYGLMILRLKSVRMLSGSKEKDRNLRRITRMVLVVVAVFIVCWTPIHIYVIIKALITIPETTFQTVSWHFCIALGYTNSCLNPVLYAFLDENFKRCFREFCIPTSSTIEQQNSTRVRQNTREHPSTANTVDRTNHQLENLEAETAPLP

## [2H][C@@H]1[C@H]([2H])[C@H]2[C@H]3Cc4ccc(O)c5c4[C@@]2(CCN3C)[C@@H](O5)[C@H]1O [Example 1, (5α,6α,7β,8β)-3,6-dihydroxy-4,5-epoxy-17-methyl-(7,8-^2H2)-morphinan]
  affinity to μ-opioid receptors compared to morphine: higher affinity to μ-opioid receptors than the morphine
  affinity to μ-opioid receptors compared to the corresponding hydrogenated derivative: higher affinity to μ-opioid receptors than the corresponding hydrogenated derivatives
  μ-opioid activity compared to DAMGO: more active than the prototypic opioid ligand DAMGO

Reference: US9447108B2 (SZEGEDI TUDOMÁNYEGYETEM, priority 2013, dated 2016)
